This is an account of results in PubChem BioAssay AID540256 (National Center for Advancing Translational Sciences (NCATS), 2011).

The list shows a part of the results, in another mix than the full data. Some tests of the compounds listed are not included; inactive here does not mean inactive elsewhere. Results filed as inconclusive are left out. Activity calls are given as the source filed them. Calls come from the whole dose curve; tested in HEK293 cells.
% is set by controls: 0 for no effect and ±100 for the full control effect.

This test is described as follows: qHTS for Inhibitors of binding or entry into cells for Lassa Virus. Note: nearly all actives have a fitted effect of over 50% in size. Conditions: Lassa virus pseudotype entry inhibition, cell reporter; at 37.9 µM (top of the series).
`CC(C)N1C(=O)CC2(CCN(CCOC(=O)C(O)(c3ccccc3)c3ccccc3)CC2)C1=O`: the activity change, negative = inhibition is inactive: -11.3%.
